Reference: ChEMBL document CHEMBL3997822, “Asymmetric total synthesis of tetrahydroprotoberberine derivatives and evaluation of their binding affinities at dopamine receptors” (Bioorg Med Chem Lett, 2017)

Sequences of proteins named here, by UniProt entry; tags and fusion partners are left off.
UniProt P14416, whole entry: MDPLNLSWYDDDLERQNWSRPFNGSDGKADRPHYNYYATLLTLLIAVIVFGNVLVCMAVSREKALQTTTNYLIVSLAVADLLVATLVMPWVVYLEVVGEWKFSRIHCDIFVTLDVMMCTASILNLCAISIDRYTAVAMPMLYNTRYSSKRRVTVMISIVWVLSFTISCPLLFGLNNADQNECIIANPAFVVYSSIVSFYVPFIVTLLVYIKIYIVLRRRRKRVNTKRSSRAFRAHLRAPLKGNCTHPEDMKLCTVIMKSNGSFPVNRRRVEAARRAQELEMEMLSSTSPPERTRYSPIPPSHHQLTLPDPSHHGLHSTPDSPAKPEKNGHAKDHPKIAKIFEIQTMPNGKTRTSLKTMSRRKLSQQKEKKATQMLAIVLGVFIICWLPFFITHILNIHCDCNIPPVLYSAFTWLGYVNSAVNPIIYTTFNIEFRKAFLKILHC

Molecular target: D(2) dopamine receptor (Homo sapiens, UniProt P14416)
Assay: Displacement of [3H]SCH23390 from human FLAG-tagged dopamine D2 receptor expressed in HEK293 cells after 1 hr
Assay type: cell-based

COc1cc2c(cc1O)[C@@H]1Cc3ccc(OC)c(OC)c3CN1CC2
Ki: 0.0418 µM
